# Molecular target: Serine/threonine-protein kinase B-raf [V600E] (Homo sapiens, UniProt P15056, V600E)
# Sequences of proteins named here, by UniProt entry; tags and fusion partners are left off. Residues count along the entry.
# UniProt P15056, 2-766 V600E limits assumed: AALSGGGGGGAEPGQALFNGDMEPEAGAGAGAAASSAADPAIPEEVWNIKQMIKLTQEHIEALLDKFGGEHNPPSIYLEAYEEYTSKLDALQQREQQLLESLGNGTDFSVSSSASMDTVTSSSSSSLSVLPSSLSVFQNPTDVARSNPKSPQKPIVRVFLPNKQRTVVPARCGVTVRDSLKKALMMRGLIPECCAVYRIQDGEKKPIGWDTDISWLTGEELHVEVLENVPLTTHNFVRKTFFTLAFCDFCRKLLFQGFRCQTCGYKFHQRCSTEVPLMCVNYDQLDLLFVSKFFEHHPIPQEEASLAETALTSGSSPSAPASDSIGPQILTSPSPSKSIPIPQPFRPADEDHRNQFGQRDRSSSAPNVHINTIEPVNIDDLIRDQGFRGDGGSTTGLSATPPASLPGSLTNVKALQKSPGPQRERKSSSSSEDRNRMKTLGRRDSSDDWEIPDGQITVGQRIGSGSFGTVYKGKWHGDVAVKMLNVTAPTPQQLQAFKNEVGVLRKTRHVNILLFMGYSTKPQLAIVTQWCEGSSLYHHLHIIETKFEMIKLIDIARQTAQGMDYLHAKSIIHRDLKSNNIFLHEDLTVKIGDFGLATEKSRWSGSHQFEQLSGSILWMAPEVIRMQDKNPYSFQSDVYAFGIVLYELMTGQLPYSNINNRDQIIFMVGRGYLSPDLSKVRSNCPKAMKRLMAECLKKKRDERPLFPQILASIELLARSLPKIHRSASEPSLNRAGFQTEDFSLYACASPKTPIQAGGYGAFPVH
row,IC50 [nM],Structure (SMILES)
1,3.05,"Cc1ccc(NC(=O)c2cccc(C3(C#N)CC3)c2Cl)cc1-c1cc(N2CCOCC2)nc(N2CCOCC2)n1 [US9242969, 17]"
2,0.802,"Cc1ccc(NC(=O)c2cccc(C(F)(F)F)c2)cc1-c1cc(N)nc(N2CCOCC2)c1 [US9242969, 93]"
